# Reference: PubChem BioAssay AID540277 (National Center for Advancing Translational Sciences (NCATS), 2011)
# Chains of the proteins cited; added tags and fusions are not shown.
# UniProt Q8NER1, whole entry: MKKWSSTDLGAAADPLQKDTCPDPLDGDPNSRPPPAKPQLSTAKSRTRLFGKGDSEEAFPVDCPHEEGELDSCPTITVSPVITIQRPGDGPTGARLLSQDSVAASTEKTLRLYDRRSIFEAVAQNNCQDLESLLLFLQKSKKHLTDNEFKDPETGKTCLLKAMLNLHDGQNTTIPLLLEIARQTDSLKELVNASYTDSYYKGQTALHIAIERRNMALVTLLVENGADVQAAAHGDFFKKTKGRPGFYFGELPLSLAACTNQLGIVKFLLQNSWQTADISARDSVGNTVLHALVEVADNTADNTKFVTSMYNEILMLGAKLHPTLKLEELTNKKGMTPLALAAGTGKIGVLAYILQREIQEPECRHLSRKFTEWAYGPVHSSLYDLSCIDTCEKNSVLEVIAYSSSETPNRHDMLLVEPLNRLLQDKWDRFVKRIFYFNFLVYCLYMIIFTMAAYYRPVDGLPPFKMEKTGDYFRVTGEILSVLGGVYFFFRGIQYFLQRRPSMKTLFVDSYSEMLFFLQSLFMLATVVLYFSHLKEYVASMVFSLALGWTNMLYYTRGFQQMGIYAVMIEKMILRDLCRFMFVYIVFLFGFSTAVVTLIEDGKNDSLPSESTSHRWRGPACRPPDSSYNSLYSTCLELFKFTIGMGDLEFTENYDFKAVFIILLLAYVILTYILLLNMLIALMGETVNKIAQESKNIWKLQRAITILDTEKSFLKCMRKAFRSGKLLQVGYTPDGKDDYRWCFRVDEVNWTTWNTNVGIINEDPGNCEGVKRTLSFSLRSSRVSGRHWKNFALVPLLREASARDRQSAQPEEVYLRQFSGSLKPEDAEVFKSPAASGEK
# The other results are listed elsewhere or left out. Some of these compounds have results that are not shown, active ones among them. Results filed as inconclusive are left out. The source made the active and inactive calls. No stated cut-off is given here; in the data, active means potentiation above about 80%; inconclusive means between about 30% and that limit; inactive means weaker than that.
# Target: Transient receptor potential cation channel subfamily V member 1 (Homo sapiens) (UniProt Q8NER1)
# Experiment: HTS Assay for Compounds that Act as Potentiators of the Vanilloid Receptor 1; further: 0% is about no effect
# Settings: TRPV1-expressing cells, Fluo-8 calcium influx, capsaicin EC20 potentiation; at 8.33 µM; hits give high values
# Description: The transient receptor potential ion channel, family V, number 1, (TRPV1) is one of the most important molecular transducers of painful stimuli and a potential target for analgesic drug development. Although recent clinical trials with orthosteric antagonists have not produced a successful drug because of a hyperthermia side effect and their tendency to block thermal noxious pain, this ion channel is undeniably well placed in the pain pathway, and the idea of blocking pain signals before they enter the CNS is an excellent concept and of proven efficacy when TRPV1 agonists are used. We propose a new approach involving allosteric modulation to impose an activity-dependent constraint within the context of inflammation and tissue damage that would alter the responsiveness of the channel in a way that an orthosteric vanilloid antagonist cannot achieve. We believe that the allosteric modulator approach has not been explored for this target. The main goal of this proposal is to identify additional, new, potent allosteric modulators of TRPV1 that can be used to investigate TRPV1 function. Our recent report provides evidence of proof of concept, but the compounds are just at the edge of utility in terms of potency. […] The question of whether they can be used as analgesic agents is complex, but if suitable compounds are identified then testing for analgesic properties will be conducted. NIH Chemical Genomics Center [NCGC] NIH Molecular Libraries Probe Centers Network [MLPCN] MLPCN Grant: MH089480-1A1 Assay Submitter (PI): Michael Iadarola, National Institute of Dental and Cranofacial Research
# Upon TRPV1 activation in TRPV1 cells, the channel opens and extracellular cations flow through the channel into the cytosol. A calcium binding dye (Fluo-8) becomes fluorescent when bound to calcium. This dye is pre-loaded into cells and is used as a marker for calcium influx. The amount of accumulated calcium is precisely quantified using the FDSS kinetic reader and the calcium dye. For the HTS assay, freshly prepared cells are plated at a density of 2000/well in 3 ul medium in 1536-well plates and cultured overnight at 35.5C. Cells will be loaded with 1 ul of the homogeneous calcium dye (ABD Bioquest) at room temperature for 40 to 90 minutes. Plates will be loaded into the FDSS kinetic reader and a 1 sec / cycle for 10 second baseline signal will be measured. Compound library will then be added with a pintool at 23 nl and measured kinetically for 3 minutes. This portion of the read is considered the agonist portion of the screen. Following the 3 minutes of incubation, an on board pipettor will deliver 1 ul of capsaicin for a final concentration equal to the EC20. Signal will be measured kinetically for an additional 2 minutes. This portion of the read is considered the allosteric enhancer portion of the screen. The FDSS reader has a standard filter set capable of measuring calcium bound Fluo-8 (ex=480 and em=520 nm).
row,Compound,potentiation
1,O=C(NCC1(N2CCCCC2)CCCCC1)c1cc([N+](=O)[O-])ccc1Cl,inactive: -7.42%
2,CN1[C@@H]2CC[C@H]1CC(OC(=O)C(O)(c1ccccc1)c1ccccc1)C2 (some centres undefined),inactive: -13%
3,CCN(CC)CC(C)C(C)OC(=O)C(O)(c1ccccc1)c1ccccc1 (centres undefined),inactive: -14.1%
4,COc1cc(SC)ccc1C(=O)NCC1(N(C)C)CCCCC1,inactive: -8.38%
5,CC(C)N1C(=O)CC2(CCN(CCOC(=O)C(O)(c3ccccc3)c3ccccc3)CC2)C1=O,inactive: 23.5%
6,Cc1ccc(C(=O)NCC2(N3CCCCC3)CCCCC2)cc1,inactive: -1.15%
7,Cc1ccccc1C(=O)NCC1(N2CCCCC2)CCCCC1,inactive: 2.78%
8,CN(C)c1ccc(C(=O)NCC2(N(C)C)CCCCC2)cc1,inactive: 4.61%
9,CN(C)C1CCCC1OC(=O)C(O)(c1ccccc1)c1ccccc1 (centres undefined),inactive: 3.59%
10,C=CCN1CCN(CCOC(=O)C(O)(c2ccccc2)c2ccccc2)CC1,inactive: 2.06%
11,O=C(NCC1(N2CCCCC2)CCCCC1)c1cc(F)c(F)cc1Cl,inactive: 4.1%
12,COc1ccc(C(=O)NCC2(N(C)C)CCCCC2)cc1,inactive: 8.54%
13,CCN1CCCC(OC(=O)C2(O)c3ccccc3C=Cc3ccccc32)C1 (centres undefined),inactive: -6.39%
14,Cc1cc(C(=O)NCC2(N3CCCCC3)CCCCC2)ccc1[N+](=O)[O-],inactive: -6.88%
15,O=C(NCC1(N2CCCCC2)CCCCC1)c1cccc(Br)c1,inactive: 5.15%
16,CN(C)C1(CNC(=O)c2ccc(Br)cc2)CCCCC1,inactive: -8.41%
17,COc1cc(C(=O)NCC2(N(C)C)CCCCC2)c([N+](=O)[O-])cc1OC,inactive: 8.04%
18,COc1cccc(C(=O)NCC2(N3CCCCC3)CCCCC2)c1,inactive: 1.75%
19,COc1ccc(Cl)cc1C(=O)NCC1(N(C)C)CCCCC1,inactive: 28%
20,O=C(NCC1(N2CCCCC2)CCCCC1)c1cccc(Cl)c1,inactive: 5.78%
21,O=C(OC1CN2CCC1CC2)C(CO)(c1ccccc1)c1ccccc1 (centres undefined),inactive: 1.04%
22,COc1ccc(Br)c(C(=O)NCC2(N3CCCCC3)CCCCC2)c1,inactive: -9.08%
23,CC(C)Oc1ccc(C(=O)NCC2(N(C)C)CCCCC2)cc1,inactive: 11.4%
24,CN(C)c1cccc(C(=O)NCC2(N(C)C)CCCCC2)c1,inactive: -17.9%
